US10927170B2, “Anti-claudin 1 monoclonal antibodies for the prevention and treatment of hepatocellular carcinoma” (INSTITUT HOSPITALIER UNIVERSITAIRE DE STRASBOURG, priority 2015, dated 2021)

Tested on: HCV Jc1-infected Huh7.5.1^dif cells
Assay: 186-gene HCC risk signature (nCounter, GSEA, nearest template prediction) in persistently HCV Jc1-infected Huh7.5.1^dif cells
Type: cell-based, human
Details: DAA 1 nM DCV+1 μM SOF; interferon alpha-2a 10 IU/ml; erlotinib 0.1 μM; pioglitazone 1 μM; metformin 3 μM; mAb 1, 10 and 100 μg/ml
Procedure: Huh7.5.1 cells have already been described (Zhong et al., Proc Natl Acad Sci USA, 2005, 102(26): 9294-9299). For proliferation arrest and differentiation (Huh7.5.1^dif cells), 2.5.10^4 to 3.10^4 Huh7.5.1 cells were cultured in Dulbecco's Modified Eagle Medium (DMEM) containing 1% dimethylsulfoxide (DMSO).
Cell culture-derived HCVcc Jc1 (genotype 2a/2a) (Pietschmann et al., Proc Natl Acad Sci USA, 2006, 103(19): 7408-7413) were generated in Huh7.5.1 cells as previously described (Wakita et al., Nat Med., 2005, 11(7): 791-796). HCVcc infectivity was determined by calculating the 50% tissue culture infectious doses (TCID50) in infection experiments as previously described (Lindenbach et al., Science, 2005, 309(5734): 623-626). HCV infection was assessed by qRT-PCR of intracellular HCV RNA (Xiao et al., Gut, 2015, 64(3): 483-494) as well as by immunostaining using an HCV E2-specific AP33 antibody as previously described (Krieger et al., Hepatology. 2010, 51(4): 1144-1157).
Liver cells were lysed in TRI-reagent (Molecular Research Center), and RNA was purified using Direct-zol RNA MiniPrep (Zymo Research) according to the manufacturer's instructions. RNA quantity and quality were assessed using NanoDrop (ThermoScientific) and Bioanalyzer 2100 ([…]). Gene expression profiling was performed using 250-500 ng total RNA by using nCounter Digital Analyzer system (NanoString). […]

interferon alpha-2a: interferon-alpha 2a from Roche
Reversal of HCC high-risk genes as shown by GSEA (FIG. 2A): partially reverses
